Experimental findings from patent US7605163B2, “Benzoyl-piperazine derivatives” (Hoffmann-La Roche Inc., priority 2003, dated 2009) are described below.

Amino acid sequences for entries named in this document (tags omitted). Residues count along the entry.
UniProt P28571, 1-651 isoform 2: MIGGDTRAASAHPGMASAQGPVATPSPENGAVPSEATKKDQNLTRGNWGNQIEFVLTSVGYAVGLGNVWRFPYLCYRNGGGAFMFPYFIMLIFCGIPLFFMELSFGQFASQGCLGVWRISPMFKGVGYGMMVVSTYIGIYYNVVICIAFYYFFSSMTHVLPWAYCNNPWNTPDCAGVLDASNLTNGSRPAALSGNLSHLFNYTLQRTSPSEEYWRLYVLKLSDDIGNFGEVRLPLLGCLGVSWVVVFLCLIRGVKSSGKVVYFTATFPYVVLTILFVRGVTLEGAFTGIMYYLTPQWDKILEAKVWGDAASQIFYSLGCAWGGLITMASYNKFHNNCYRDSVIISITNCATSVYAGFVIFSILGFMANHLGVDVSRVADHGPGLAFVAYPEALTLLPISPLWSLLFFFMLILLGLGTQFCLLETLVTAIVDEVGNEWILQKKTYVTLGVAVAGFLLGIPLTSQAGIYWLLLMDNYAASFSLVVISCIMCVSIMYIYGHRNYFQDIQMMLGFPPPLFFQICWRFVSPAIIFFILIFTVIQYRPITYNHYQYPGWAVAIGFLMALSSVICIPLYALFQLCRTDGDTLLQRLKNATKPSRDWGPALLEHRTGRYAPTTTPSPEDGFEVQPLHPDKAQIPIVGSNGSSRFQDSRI

pIC50: −log10 of the molar value.

The target of this test is mGlyT-1b (Mus musculus, UniProt P28571). The test can be described thus: Glycine Uptake Inhibition Assay (mGlyT-1b). As to conditions: [3H]-glycine uptake inhibition at GlyT-1, Flp-in-CHO cells transfected with mGlyT-1b cDNA.

As usually defined, the pIC50 is the IC50 on a negative log10 scale, so that one unit is a factor of ten. Lower therefore signals a high IC50. For the compound `CC(=O)c1ccc(N2CCN(C(=O)c3cc(S(C)(=O)=O)ccc3OCC(C)(C)C)CC2)c(F)c1`, the pIC50 was 7.74.
